Laboratory results reported in PMC4505066, “Insights into the Recruitment of Class IIa Histone Deacetylases (HDACs) to the SMRT/NCoR Transcriptional Repression Complex” (The Journal of Biological Chemistry, 2015).

The chains behind the UniProt entries cited, without tags or fusion partners. Residues count along the entry.
UniProt P56524, 655-1084 limits assumed: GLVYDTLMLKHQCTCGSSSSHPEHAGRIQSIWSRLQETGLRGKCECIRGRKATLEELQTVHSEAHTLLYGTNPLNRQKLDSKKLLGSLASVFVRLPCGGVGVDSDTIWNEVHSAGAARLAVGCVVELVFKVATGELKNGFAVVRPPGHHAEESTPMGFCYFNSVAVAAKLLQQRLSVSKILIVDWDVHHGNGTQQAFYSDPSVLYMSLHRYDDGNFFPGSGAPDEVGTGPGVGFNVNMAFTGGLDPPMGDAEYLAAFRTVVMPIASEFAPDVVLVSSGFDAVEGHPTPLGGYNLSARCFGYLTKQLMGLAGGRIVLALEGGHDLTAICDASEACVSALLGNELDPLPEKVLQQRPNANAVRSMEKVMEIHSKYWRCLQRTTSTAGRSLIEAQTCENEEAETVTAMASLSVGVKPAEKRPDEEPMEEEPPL

Molecular target: T1, HDAC4 catalytic domain (wild type) (Homo sapiens, UniProt P56524)
T1 construct: we purified the recombinant catalytic domains of HDACs 4, 5, 7, and 9; hexa-histidine tag (N, cleaved yes); S-tag (N, cleaved yes); made in house; host or cells: Escherichia coli Rosetta (pET30)
Assay: Fluorescence anisotropy binding of BODIPY-TMR labeled GSI motif peptides to HDAC4
Conditions: wild type HDAC4, 2-fold molar excess of inhibitor

maximum polarization of GSI peptide binding in the presence of inhibitor: lower maximum polarization
SMILES: CC(/C=C/C(=O)NO)=C\[C@@H](C)C(=O)c1ccc(N(C)C)cc1 [TSA, trichostatin A, reference compound]
